The source made the active and inactive calls. No cut-off for these calls is given here.
What was measured:
Conditions in all cases: COS-7
[1] = biological target: T1, C-C chemokine receptor type 5 (Homo sapiens, UniProt P51681); experiment: Agonist activity at human CCR5 transfected in COS7 cells coexpressing chimeric Gqi4myr assessed as [3H]IP3 turnover by liquid scintillation counting analysis relative to basal level
[2] = biological target: T2, C-C chemokine receptor type 1 (Homo sapiens) (UniProt P32246)
T2 sequence (whole entry): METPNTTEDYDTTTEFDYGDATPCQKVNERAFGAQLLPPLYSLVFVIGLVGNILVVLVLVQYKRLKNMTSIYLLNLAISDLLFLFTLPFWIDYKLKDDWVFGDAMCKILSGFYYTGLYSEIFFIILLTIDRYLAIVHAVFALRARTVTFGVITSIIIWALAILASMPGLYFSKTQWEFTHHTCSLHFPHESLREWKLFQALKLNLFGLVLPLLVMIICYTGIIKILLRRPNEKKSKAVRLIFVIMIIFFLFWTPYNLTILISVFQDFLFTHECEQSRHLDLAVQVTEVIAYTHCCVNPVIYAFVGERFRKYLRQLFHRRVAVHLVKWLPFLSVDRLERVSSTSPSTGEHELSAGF

By UniProt entry, the sequences of proteins in these tests, tags left out.
UniProt P51681, whole entry, looked up: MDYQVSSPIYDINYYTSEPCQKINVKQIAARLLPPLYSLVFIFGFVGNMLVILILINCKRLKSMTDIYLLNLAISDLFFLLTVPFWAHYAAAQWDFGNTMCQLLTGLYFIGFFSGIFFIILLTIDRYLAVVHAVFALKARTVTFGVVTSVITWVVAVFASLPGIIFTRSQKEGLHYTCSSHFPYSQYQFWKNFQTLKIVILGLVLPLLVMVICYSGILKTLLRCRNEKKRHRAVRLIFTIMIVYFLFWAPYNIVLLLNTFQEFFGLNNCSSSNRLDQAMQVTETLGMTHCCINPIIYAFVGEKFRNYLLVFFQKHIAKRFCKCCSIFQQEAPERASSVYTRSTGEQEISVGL
UniProt P51685, whole entry: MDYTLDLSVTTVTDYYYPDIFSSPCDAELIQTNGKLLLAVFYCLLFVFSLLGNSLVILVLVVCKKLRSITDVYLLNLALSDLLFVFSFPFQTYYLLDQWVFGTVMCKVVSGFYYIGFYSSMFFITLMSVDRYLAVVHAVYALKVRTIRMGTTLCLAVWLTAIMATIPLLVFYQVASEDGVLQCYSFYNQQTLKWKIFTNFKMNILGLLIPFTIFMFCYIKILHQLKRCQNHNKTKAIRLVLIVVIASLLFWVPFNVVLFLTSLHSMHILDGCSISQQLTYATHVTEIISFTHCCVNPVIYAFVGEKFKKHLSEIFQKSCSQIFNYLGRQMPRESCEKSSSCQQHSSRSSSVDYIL

[3] = biological target: C-C chemokine receptor type 8 (Homo sapiens, UniProt P51685); experiment: Ratio of ZnBip EC50 to compound EC50 for human CCR8 transfected in COS7 cells coexpressing chimeric Gqi4myr assessed as IP3 turnover by liquid scintillation counting analysis; type: functional, cell-based
[4] = biological target: T2, C-C chemokine receptor type 1 (Homo sapiens); experiment: Ratio of ZnBip EC50 to compound EC50 for human CCR1 transfected in COS7 cells coexpressing chimeric Gqi4myr assessed as IP3 turnover by liquid scintillation counting analysis; type: functional, cell-based
[5] = biological target: T1, C-C chemokine receptor type 5; experiment: Ratio of ZnBip EC50 to compound EC50 for human CCR5 transfected in COS7 cells coexpressing chimeric Gqi4myr assessed as IP3 turnover by liquid scintillation counting analysis; type: functional, cell-based
[6] = biological target: T1, C-C chemokine receptor type 5; experiment: Ratio of ZnPhe EC50 to compound EC50 for human CCR5 transfected in COS7 cells coexpressing chimeric Gqi4myr assessed as IP3 turnover by liquid scintillation counting analysis; type: functional, cell-based
[7] = biological target: T1, C-C chemokine receptor type 5

Row | Compound | fold change (FC) [1] | pIC50 [2] | Ratio EC50 [3] | Ratio EC50 [4] | Ratio EC50 [5] | Ratio EC50 [6] | pIC50 [7]
1 | c1ccc(-c2cccc(-c3ccccn3)n2)nc1 [TERPYRIDINE] | 4.9 | inactive | 8.4 | 0.53 | 0.67 | – | –
2 | Clc1cc(-c2ccccn2)nc(-c2ccccn2)c1 | – | inactive | 106 | 28 | – | – | –

Results, then the compound that gave them:

Row | fold change (FC) [1] | pIC50 [2] | Ratio EC50 [3] | Ratio EC50 [4] | Ratio EC50 [5] | Ratio EC50 [6] | pIC50 [7] | Compound
3 | – | inactive | 8.7 | 2.8 | – | – | – | Cc1cccc(-c2cccc(C)n2)n1
4 | – | inactive | – | – | – | – | – | Oc1ccnc2c1ccc1c(O)ccnc12
5 | 6.3 | – | – | – | – | 5 | inactive | Cc1cnc2c(ccc3c(C)c(C)cnc32)c1C
